The values below are quoted from earlier work in US8192734B2, “Compositions and methods for bone strengthening” (Cornell University, priority 2007, dated 2012).

This data set relates to rats. As to conditions: cited from earlier work.

Regarding strontium nitrate, the LD50 is listed as 540 mg/kg body weight.
